Assay results reported in ChEMBL document CHEMBL4834401, “Structure-Activity Relationship Studies of Coumarin-like Diacid Derivatives as Human G Protein-Coupled Receptor-35 (hGPR35) Agonists and a Consequent New Design Principle” (J Med Chem, 2021).
Active and inactive are the calls of the source.

Amino acid sequences for entries named in this document (tags omitted).
UniProt P35372, whole entry: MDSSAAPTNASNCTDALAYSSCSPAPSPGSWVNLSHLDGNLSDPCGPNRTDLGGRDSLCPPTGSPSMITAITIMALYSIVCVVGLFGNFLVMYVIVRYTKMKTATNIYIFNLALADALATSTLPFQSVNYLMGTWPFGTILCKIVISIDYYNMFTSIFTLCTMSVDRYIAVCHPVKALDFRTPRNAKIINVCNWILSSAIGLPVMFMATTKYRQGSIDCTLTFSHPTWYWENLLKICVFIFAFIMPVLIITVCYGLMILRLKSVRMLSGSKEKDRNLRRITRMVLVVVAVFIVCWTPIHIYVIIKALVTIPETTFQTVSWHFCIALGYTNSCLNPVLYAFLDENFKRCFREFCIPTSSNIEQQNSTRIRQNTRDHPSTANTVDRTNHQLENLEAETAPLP
UniProt P14416, whole entry: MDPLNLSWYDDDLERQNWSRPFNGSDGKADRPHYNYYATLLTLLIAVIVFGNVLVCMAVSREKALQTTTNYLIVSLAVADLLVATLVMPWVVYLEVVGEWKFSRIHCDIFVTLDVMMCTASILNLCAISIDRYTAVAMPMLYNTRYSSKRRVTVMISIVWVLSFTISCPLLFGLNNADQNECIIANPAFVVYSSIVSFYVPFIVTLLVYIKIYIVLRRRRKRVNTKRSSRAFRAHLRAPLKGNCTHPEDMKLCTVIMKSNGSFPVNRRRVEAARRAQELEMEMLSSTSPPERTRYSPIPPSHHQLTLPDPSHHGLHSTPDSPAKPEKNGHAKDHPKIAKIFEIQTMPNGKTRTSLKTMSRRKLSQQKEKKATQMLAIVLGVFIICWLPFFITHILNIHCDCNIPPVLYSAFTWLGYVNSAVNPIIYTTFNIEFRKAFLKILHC
UniProt P20309, whole entry, looked up: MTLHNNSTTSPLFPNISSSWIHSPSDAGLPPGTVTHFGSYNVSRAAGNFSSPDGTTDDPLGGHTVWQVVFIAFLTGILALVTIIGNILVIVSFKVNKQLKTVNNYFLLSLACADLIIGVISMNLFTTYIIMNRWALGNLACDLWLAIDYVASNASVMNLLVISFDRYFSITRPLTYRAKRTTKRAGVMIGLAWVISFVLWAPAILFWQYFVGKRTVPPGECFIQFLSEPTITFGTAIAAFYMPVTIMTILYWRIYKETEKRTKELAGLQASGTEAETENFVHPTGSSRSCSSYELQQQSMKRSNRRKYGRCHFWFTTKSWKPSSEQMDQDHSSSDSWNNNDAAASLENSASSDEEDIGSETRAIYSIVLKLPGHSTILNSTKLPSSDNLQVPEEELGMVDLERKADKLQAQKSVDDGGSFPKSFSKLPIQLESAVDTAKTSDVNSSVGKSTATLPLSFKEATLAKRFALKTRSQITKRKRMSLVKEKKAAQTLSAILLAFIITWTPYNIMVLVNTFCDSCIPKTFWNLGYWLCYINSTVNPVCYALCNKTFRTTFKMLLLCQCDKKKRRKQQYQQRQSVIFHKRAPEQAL

Experiments:
[1] = target: Mu-type opioid receptor (Homo sapiens) (UniProt P35372); assay: Agonist activity at mu-opioid receptor (unknown origin) at 1 uM; format: functional
How it was run: (§1)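 Each receptor was expressed separately in its own cell line, and compounds were added at 1 μM. Cells were seeded on biosensor plates and grown overnight to a confluent monolayer. They were then washed, kept in Hank's balanced salt solution, and equilibrated 1 h in the reader. After a 2 min baseline, the label-free dynamic mass redistribution (DMR) response was recorded immediately after compound addition.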

[2] = target: D(2) dopamine receptor (Homo sapiens) (UniProt P14416); assay: Agonist activity at dopamine D2 receptor (unknown origin) at 1 uM; format: functional; how it was run: as §1
[3] = target: T1, Free fatty acid receptor 4 (Homo sapiens) (UniProt Q5NUL3); assay: Agonist activity at FFA4 receptor (unknown origin) at 1 uM; format: functional; how it was run: as §1
T1 sequence (whole entry): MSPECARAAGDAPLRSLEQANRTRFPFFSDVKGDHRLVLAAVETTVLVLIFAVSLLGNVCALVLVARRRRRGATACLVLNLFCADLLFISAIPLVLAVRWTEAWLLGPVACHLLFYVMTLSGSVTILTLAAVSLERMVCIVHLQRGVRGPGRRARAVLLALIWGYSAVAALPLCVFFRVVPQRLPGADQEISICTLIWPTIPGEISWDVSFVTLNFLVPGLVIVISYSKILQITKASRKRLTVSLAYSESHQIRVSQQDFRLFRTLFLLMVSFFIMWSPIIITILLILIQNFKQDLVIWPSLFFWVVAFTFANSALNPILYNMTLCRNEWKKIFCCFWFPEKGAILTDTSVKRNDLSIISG

[4] = target: Muscarinic acetylcholine receptor M3 (Homo sapiens) (UniProt P20309); assay: Agonist activity at muscarinic M3 receptor (unknown origin) at 1 uM; format: functional; how it was run: as §1
[5] = target: Histamine H1 receptor (Homo sapiens) (UniProt P35367); assay: Agonist activity at histamine H1 receptor receptor (unknown origin) at 1 uM

Measured: Activity

O=C(O)c1cc2c3ccccc3c3cc(C(=O)O)c(=O)oc3c2oc1=O
inactive: [1] | [2] | [3] | [4] | [5]

COc1ccc(-c2c3oc(=O)c(C(=O)O)cc3cc3cc(C(=O)O)c(=O)oc23)cc1
inactive: [1] | [2] | [3] | [4] | [5]

O=C(O)c1cc2cc3cc(C(=O)O)c(=O)oc3c(Br)c2oc1=O
inactive: [1] | [2] | [3] | [4] | [5]
